{"source": "patent EP0078757A1", "about": "“Imines of 2-(4-phenyl-piperazinylethyl) anilines, process for their preparation and their use in medicine” (CORTIAL S.A., priority 1981, dated 1983)", "system": "souris Swiss", "test": "Oral (intragastric) toxicity, mortality in mice", "format": "in vivo", "conditions": "mouse, solvent as in the source", "from_the_text": "La mortalité induite par ces substances a été déterminée chez la souris Swiss exempte d'organismes pathogènes spécifiques. Les animaux sont stabulés en salle climatisée 24 à 48 heures avant le début de l'expérimentation. Les substances sont administrées soit par voie intragastrique en solution dans de l'huile d'olive ou du tween, soit par voie intrapéritonéale en solution dans du tween. Les résultats sont exprimés dans les tableaux I et II par le pourcentage de mortalité en fonction de la dose administrée ou par la dose induisant 50 % de mortalité (DL 50) déterminée par la méthode de Bliss."}
{"substance": "(phényl-4pipérazinyléthyl)-2 N-pyridylidène-3 aniline [COR 3412]", "values": [{"measurement": "% de mortalité en fonction de la dose exprimée en mg/kg", "setting": "dose 1000 mg/kg", "result": "0-10%"}, {"measurement": "% de mortalité en fonction de la dose exprimée en mg/kg", "setting": "dose 1500 mg/kg", "result": 0, "unit": "%"}]}
